{"source": "patent US7790781B2", "about": "(priority 2005, dated 2010)", "assay": "pKa of acidic compound in water", "source_text": "If polyfunctional acids are used, it is sufficient for at least one of the pKa values, preferably the pKa1 of the polyfunctional acid used, to lie within the aforementioned ranges.", "data": [{"smiles": "O=C(O)CCC(=O)O", "note": "[succinic acid]", "values": [{"measurement": "pKa", "result": 4.19}]}]}
